Data as given in ChEMBL document CHEMBL2177051.

Key:
Conditions in all cases: Homo sapiens
HEK293 [1] = assay: Inhibition of proteasome beta2 in HEK cell lysates at 1 to 100 uM after 1 hr by MV151 competitive SDS-PAGE analysis
HEK293 [2] = assay: Inhibition of proteasome beta1 in HEK cell lysates at 1 to 100 uM after 1 hr by MV151 competitive SDS-PAGE analysis
HEK293 [3] = assay: Inhibition of proteasome beta5 in HEK cell lysates at 1 to 100 uM after 1 hr by MV151 competitive SDS-PAGE analysis

Measured: inhibition

CC(C)C[C@@H](CS(=O)(=O)F)NC(=O)[C@@H](N)CC(C)C
inactive: all assays above

Active and inactive are the calls of the source.
